Calls of active or inactive are those of the source. Rule as the data show it: actives have a measured IC50 and inactives only a lower limit.
Target: Alkaline phosphatase, placental type (Homo sapiens, UniProt P05187)
Assay: human placental alkaline phosphatase inhibition – biochemical, luminescence, confirmation (AID 1512)
Format: functional

Sequences of proteins named here, by UniProt entry; tags and fusion partners are left off. A change or cut given only in a name is not applied to a line headed by its entry.
UniProt P05187: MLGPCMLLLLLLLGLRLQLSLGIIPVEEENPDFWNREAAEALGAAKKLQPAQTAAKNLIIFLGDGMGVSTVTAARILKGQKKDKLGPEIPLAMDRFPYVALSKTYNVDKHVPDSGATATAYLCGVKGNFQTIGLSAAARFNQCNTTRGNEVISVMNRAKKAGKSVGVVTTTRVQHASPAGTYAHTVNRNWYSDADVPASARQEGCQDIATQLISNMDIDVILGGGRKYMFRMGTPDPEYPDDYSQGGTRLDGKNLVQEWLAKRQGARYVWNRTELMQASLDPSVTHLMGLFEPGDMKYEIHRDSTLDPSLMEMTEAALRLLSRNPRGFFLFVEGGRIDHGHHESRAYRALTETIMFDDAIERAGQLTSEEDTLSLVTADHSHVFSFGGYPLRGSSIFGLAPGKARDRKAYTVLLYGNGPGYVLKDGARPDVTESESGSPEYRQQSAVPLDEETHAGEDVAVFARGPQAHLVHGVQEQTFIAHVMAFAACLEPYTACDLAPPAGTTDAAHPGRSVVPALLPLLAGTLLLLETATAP

IC50 | Compound
active: 1530 nM | O=C(Cn1cnc2ccccc21)c1ccc(O)c(O)c1
active: 2950 nM | COc1ccc2c(c1OC)C(=O)OC2CC(=O)c1ccc(O)c(O)c1 (configuration not stated)

From ChEMBL document CHEMBL1201862, “PubChem BioAssay data set” (2004)
